The term EC50 denotes the concentration giving half of the maximal effect.

Amino acid sequences for entries named in this document (tags omitted). Residues count along the entry.
UniProt P31423, 33-912 Q124R limits assumed: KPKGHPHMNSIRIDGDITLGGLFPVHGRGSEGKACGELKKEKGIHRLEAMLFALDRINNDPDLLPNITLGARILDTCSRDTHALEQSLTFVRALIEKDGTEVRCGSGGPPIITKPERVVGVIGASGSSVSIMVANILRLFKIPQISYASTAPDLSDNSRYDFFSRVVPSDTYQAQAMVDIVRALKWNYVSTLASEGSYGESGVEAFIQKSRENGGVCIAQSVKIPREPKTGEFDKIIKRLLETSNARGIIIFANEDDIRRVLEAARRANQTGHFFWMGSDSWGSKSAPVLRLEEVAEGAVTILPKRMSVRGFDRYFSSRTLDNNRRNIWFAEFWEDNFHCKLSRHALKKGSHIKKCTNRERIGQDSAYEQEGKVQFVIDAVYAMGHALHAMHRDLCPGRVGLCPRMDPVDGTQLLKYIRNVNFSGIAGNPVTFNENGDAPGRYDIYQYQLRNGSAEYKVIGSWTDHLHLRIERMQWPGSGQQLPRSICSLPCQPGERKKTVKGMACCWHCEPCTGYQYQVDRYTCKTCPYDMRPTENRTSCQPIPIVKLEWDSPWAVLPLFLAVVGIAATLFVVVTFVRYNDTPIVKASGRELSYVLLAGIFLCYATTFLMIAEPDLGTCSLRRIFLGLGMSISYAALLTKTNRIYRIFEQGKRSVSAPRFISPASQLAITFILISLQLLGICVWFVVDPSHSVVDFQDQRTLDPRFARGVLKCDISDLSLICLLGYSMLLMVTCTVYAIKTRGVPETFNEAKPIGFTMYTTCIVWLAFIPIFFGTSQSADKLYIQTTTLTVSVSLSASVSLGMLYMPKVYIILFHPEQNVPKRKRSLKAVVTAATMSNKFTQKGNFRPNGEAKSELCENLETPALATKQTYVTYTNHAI

The values that follow come from BindingDB's records for doi:10.7270/Q2DR2SWV (Vanderbilt Screening Center For Gpcrs, Ion Channels and …, 2010).

The assay addresses Metabotropic glutamate receptor 4 [Q124R] (Rattus norvegicus, UniProt P31423, Q124R). In words: PubChem AID 2185.

In the case of `COc1cc(NC(=O)c2ccccn2)ccc1Cl`, the EC50 turned out to be 107 nM.
